This is an account of results in patent publication US20030194749A1 (priority 2002, published 2003).

Protein sequences, listed by entry. Tags and fused reporters are not part of them.
UniProt P78527, whole entry: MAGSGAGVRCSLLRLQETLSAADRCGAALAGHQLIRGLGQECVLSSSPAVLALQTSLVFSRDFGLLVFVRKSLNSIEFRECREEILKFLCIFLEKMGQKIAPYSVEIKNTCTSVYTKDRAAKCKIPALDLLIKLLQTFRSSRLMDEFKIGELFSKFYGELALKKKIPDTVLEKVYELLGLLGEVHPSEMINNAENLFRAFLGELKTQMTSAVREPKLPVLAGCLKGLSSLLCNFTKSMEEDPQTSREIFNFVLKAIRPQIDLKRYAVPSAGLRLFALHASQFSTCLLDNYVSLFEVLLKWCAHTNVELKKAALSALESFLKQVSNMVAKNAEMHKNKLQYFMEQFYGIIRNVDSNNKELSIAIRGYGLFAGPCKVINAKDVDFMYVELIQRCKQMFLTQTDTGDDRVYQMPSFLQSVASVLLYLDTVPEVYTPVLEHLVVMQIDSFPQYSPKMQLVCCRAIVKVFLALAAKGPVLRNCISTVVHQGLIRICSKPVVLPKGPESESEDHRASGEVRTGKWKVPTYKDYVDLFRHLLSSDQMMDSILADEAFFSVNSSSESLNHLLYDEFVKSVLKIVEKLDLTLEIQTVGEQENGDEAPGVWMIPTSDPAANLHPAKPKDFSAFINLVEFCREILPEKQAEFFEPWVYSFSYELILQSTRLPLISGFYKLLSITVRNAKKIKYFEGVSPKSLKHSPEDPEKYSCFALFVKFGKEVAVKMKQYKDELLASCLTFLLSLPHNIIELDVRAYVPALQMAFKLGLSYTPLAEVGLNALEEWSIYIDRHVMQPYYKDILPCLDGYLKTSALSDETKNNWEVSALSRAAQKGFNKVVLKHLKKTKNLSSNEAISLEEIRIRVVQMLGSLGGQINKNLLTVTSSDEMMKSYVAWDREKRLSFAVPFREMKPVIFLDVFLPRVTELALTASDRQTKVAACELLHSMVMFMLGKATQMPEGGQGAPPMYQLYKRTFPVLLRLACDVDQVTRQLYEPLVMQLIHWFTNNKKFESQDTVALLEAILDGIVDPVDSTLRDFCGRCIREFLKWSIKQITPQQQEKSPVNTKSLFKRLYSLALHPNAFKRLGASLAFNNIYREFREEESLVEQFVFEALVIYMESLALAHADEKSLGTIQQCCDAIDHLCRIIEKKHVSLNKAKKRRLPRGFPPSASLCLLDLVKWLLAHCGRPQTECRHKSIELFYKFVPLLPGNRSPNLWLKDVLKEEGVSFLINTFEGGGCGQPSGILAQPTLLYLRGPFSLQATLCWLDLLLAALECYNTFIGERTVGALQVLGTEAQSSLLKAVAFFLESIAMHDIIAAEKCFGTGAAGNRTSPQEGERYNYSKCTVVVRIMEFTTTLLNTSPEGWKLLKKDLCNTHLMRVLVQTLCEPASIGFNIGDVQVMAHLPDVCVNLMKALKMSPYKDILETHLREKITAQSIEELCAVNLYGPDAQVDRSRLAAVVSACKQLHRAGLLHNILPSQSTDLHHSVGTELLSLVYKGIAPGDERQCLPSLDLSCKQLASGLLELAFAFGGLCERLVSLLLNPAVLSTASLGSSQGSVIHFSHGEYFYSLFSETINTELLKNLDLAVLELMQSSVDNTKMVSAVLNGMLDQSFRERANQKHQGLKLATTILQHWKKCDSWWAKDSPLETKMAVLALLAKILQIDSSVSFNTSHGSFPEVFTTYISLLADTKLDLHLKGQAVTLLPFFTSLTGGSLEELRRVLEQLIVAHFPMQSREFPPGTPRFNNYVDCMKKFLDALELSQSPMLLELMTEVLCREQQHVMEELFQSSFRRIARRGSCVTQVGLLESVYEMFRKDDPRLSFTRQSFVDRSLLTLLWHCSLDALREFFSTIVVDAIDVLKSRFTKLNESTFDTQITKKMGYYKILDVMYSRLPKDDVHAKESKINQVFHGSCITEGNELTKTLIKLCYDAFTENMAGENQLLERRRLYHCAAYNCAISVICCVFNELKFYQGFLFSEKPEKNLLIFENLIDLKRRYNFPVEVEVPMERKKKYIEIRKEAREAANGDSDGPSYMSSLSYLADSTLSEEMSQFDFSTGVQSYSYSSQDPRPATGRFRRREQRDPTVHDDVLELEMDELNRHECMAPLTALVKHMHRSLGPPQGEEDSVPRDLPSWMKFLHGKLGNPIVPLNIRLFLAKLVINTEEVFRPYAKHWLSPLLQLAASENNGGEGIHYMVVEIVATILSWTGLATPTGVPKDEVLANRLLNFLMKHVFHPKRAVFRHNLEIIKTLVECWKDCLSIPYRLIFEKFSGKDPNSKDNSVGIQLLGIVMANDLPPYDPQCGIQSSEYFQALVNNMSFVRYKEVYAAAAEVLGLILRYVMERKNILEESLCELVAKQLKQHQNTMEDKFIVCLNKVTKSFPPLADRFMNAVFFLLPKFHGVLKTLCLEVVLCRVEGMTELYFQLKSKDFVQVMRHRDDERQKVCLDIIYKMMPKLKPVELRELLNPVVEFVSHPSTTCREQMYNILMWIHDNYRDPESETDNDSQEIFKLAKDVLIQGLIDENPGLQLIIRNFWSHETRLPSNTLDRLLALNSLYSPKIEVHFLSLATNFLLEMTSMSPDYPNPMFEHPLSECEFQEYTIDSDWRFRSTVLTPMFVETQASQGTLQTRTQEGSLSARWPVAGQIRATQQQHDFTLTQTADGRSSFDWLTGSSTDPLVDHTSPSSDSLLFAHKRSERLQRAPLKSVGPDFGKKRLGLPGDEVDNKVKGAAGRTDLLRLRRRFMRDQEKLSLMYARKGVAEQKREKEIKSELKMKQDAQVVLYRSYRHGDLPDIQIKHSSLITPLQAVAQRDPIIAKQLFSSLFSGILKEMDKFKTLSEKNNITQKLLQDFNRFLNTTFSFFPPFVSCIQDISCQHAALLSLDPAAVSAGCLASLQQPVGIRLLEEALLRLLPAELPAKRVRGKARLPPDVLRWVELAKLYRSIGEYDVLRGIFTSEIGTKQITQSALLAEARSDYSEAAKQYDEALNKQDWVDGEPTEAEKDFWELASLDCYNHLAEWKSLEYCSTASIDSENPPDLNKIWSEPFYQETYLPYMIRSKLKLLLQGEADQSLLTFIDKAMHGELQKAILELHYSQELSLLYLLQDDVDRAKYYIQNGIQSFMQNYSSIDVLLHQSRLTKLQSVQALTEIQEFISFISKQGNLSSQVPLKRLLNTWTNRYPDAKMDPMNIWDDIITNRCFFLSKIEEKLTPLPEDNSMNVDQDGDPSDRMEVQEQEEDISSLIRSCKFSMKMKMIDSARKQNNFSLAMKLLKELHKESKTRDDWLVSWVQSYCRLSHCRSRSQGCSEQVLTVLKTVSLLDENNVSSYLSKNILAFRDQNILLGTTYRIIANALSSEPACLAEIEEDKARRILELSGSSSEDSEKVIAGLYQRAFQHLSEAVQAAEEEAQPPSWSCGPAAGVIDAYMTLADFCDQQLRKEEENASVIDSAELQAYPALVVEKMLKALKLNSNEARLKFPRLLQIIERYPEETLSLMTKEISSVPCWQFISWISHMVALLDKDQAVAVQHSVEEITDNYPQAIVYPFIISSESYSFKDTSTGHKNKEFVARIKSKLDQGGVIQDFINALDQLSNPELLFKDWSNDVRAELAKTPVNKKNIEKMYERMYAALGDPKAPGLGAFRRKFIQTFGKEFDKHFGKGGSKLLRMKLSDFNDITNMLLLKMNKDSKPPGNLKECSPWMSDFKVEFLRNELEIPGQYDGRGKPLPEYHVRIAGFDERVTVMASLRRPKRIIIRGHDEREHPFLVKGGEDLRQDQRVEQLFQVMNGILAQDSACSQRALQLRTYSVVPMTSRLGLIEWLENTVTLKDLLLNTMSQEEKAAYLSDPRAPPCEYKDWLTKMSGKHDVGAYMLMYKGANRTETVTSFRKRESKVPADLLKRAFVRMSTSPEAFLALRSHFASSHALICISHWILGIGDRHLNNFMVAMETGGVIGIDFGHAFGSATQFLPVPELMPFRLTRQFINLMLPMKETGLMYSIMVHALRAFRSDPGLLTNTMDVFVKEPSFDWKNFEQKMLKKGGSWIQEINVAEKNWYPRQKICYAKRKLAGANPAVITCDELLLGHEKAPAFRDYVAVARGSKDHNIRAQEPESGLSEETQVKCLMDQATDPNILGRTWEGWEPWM

The target in the assay is T1, purified DNA-PK (Homo sapiens, UniProt P78527).
T1 construct: purchased Promega
As to the kind of experiment: DNA-PK kinase assay (p53 substrate). The assay is classed as biochemical. The following applies: IC50 for DNA-PK. On the procedure: This mixture was incubated for 10 minutes at RT.
The kinase reaction was stopped by adding 10 μl of 6×SDS sample buffer and boiling for 8 min at 95° C.
The dried gel was either exposed overnight to Biomax film or in the phosphoimager cassette for several hours and quantified using the program Image Quant v1.2 from Molecular Dynamics, Sunnyvale, Calif. (USA). Curves were plotted in the program KaleidaGraph v3.5 (Synergy Software, Reading, Pa.) using the Hill equation.
DNA-PK kinase assays were carried out with purified DNA-PK.
After the kinase reactions were carried out, the samples were separated on a 5-12.5% gradient gel. The gel was cut in half and the upper part (>80 kDa) was transferred to PVDF membrane. Flag-ATR and labeling with biotin-wortmannin were detected by chemiluminescence using α-Flag M5 or streptavidin HRP antibody. The lower half of the gel was stained with coomassie, dried and analyzed by autoradiography.
Therefore in total, 3-4 experiments were carried out in which the substrate phosphorylation was quantified. For the ATR kinase assay, these values were corrected for equal loading by taking the anti-Flag Western signal as a reference.

Where “and” joins values, the source holds several entries; their conditions need not be identical. Equal values may be shown once.

A word on the IC50: it is the point on the concentration scale where inhibition reaches its midpoint. As to `COC[C@H]1OC(=O)c2coc3c2[C@@]1(C)C1=C(C3=O)[C@@H]2CCC(=O)[C@@]2(C)C[C@H]1OC(C)=O` [wortmannin, Wortmannin], the IC50 was ~0.14 µM and 0.14 µM. The IC50 (read from a graph) was determined as 0.14 µM.
